Laboratory results published in patent US20090325894A1 (priority 2007, published 2009).

Experiment: Solubility in water
Type: physicochemical

Substance	solubility in water
Sodium oleoyl-L-Alanyl-L-Valyl-Doxorubicin maleate [Example 120]	more than 1 mg/mL
Sodium oleoyl-L-Alanyl-L-Valyl-Daunorubicin succinate [Example 118]	more than 1 mg/mL
Bispotassium linoleic acyl-L-Alanyl-L-Valyl-Doxorubicin bissuccinate [Example 122]	more than 1 mg/mL
Bissodium linolenic acyl-L-Alanyl-L-Valyl-Doxorubicin bissuccinate [Example 109]	more than 1 mg/mL
Bissodium 4-(2-(2-oleoylaminoethoxy)ethylamino)-4-oxo-butanoyl-L-Alanyl-L-Valyl-Doxorubicin bissuccinate [Example 112]	more than 1 mg/mL
Bisammonium linoleic acyl-L-Alanyl-L-Valyl-Doxorubicin bissuccinate [Example 123]	more than 1 mg/mL
Bissodium linoleic acyl-L-Alanyl-L-Valyl-Doxorubicin bissuccinate [Example 108]	more than 1 mg/mL

Results, then the substance that gave them:

solubility in water	Substance
more than 1 mg/mL	Bissodium oleoyl-L-Alanyl-L-Valyl-Epirubicin bissuccinate [Example 113]
more than 1 mg/mL	Trisodium 4-(2-(2-oleoylaminoethoxy)ethylamino)-4-oxo-butanoyl-L-Alanyl-L-Valyl-Doxorubicin trisuccinate [Example 121]
more than 1 mg/mL	Sodium oleoyl-L-Alanyl-L-Valyl-Doxorubicin succinate [Example 106]
more than 1 mg/mL	Trisodium oleoyl-L-Alanyl-L-Valyl-Doxorubicin trisuccinate [Example 107]
more than 1 mg/mL	Bissodium oleoyl-L-Alanyl-L-Valyl-Doxorubicin bissuccinate [Example 105]
more than 1 mg/mL	Bissodium DHA acyl-L-Alanyl-L-Valyl-Epirubicin bissuccinate [Example 117]
more than 1 mg/mL	Bissodium DHA acyl-L-Alanyl-L-Valyl-Doxorubicin bissuccinate [Example 110]
more than 1 mg/mL	Bissodium linoleic acyl-L-Alanyl-L-Valyl-Epirubicin bissuccinate [Example 115]
more than 1 mg/mL	Bissodium linolenic acyl-L-Alanyl-L-Valyl-Epirubicin bissuccinate [Example 116]
